Measurements as given in patent US8293724B2, “Therapeutic applications of fatty acid amide hydrolase inhibitors” (The United States of America, as represented by the …, priority 2007, dated 2012).

By UniProt entry, the sequences of proteins in these tests, tags left out.
UniProt O08914, whole entry: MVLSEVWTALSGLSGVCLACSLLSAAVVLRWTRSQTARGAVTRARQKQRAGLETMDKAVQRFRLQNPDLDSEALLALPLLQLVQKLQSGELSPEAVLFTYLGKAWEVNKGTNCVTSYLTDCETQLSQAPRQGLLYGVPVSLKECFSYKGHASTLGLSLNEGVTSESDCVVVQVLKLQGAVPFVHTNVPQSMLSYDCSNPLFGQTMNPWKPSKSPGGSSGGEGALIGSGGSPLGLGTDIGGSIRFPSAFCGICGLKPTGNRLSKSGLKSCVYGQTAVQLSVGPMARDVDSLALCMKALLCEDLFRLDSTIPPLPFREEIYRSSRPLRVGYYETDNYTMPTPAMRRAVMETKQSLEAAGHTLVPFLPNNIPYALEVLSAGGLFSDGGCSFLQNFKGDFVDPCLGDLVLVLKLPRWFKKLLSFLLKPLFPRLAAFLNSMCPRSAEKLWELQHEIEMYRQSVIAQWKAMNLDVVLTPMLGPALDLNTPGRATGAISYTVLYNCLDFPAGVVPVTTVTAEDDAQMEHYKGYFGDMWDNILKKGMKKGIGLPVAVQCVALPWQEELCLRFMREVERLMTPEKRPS

Target: T1, FAAH (Mus musculus, UniProt O08914)
T1 construct: the brain and liver removed, and tissue homogenates prepared as described above; from tissue; host or cells: mouse brain and liver homogenates after in vivo dosing
Experiment: FAAH activity in brain and liver homogenates following in vivo administration
Parameters: species or system mice
Details: read-out: inhibition of FAAH in the liver
Description: For the experiments illustrated in FIG. 3, FAAH activity was assessed through a different method not requiring TLC separation, as described by Jonsson et al: Br. J. Pharmacol. 133:1263-1275, 1997. […] The mice were sacrificed one hour later, the brain and liver removed, and tissue homogenates prepared as described above. [^3H]Anandamide labeled on the ethanolamide moiety was added to the homogenate and incubated at 37° C. for 10 min. The homogenate was then extracted twice with chloroform:methanol 1:1 and the radioactivity in the aqueous phase (containing the released ethanolamide) was counted.

For `O=S(=O)(F)CCCCCc1ccc(O)cc1` [AM3506], which inhibition at 0.3 mg/kg is on record?
The inhibition at 0.3 mg/kg was 0%.
